{"source": "patent US20110171714A1", "about": "“CRYSTAL STRUCTURE OF TAK1-TAB1” (VERTEX PHARMACEUTICALS INCORPORATED, priority 2005, published 2011)", "origin": "cited, not measured here", "molecular_target": "T1, TAK1 (Homo sapiens, UniProt O43318)", "T1 sequence (O43318 1-606)": "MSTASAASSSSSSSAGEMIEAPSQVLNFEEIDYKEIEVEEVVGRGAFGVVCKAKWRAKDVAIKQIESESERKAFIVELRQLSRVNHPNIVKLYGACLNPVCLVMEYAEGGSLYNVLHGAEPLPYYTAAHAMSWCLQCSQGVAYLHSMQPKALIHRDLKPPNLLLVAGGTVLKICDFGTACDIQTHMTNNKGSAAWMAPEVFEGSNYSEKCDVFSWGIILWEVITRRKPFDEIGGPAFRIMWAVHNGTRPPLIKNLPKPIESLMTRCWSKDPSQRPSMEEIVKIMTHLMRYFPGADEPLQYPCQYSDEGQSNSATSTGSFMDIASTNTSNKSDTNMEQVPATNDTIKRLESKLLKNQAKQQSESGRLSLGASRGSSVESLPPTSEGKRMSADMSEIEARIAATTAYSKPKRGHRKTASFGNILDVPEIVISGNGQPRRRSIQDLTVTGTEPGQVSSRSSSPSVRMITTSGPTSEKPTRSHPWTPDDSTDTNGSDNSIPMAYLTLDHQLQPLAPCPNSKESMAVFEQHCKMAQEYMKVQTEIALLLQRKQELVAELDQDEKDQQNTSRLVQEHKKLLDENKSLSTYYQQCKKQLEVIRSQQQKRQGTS", "T1 sequence (Q15750 1-504 partner)": "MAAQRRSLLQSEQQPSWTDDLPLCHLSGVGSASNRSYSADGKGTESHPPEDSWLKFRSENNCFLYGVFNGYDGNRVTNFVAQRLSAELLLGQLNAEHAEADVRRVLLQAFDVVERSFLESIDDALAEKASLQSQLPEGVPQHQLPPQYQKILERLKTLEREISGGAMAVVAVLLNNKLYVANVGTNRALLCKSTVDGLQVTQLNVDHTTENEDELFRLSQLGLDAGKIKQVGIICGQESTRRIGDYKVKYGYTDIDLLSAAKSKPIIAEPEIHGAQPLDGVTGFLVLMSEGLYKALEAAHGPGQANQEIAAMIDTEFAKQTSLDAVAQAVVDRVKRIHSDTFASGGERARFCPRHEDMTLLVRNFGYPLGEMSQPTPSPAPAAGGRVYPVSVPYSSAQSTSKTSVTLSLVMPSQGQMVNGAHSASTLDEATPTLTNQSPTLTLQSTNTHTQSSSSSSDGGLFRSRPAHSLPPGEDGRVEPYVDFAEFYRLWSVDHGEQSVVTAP", "details": "natural inhibitor of TAK1; cited from earlier work", "data": [{"smiles": "COc1cc(O)c2c(c1)/C=C/C[C@H](O)[C@H](O)C(=O)/C=C\\C[C@H](C)OC2=O", "note": "[5Z-7-oxozeaenol]", "values": [{"measurement": "IC50", "value": 8, "unit": "nM"}]}]}
